# Experiments:
# BT474-tumor bearing mice = format: in vivo; details: 28 days after one injection, 30 mg/kg, regardless of formulation
# Source text: For histological examination, the samples were fixed in 4% neutral buffered formalin and then stained with hematoxylin/eosin (H&E) using standard techniques. Apoptotic cells of tumor samples were identified using Terminal Transferase dUTP Nick-End Labeling (TUNEL) assay. The slides were counterstained with hematoxylin to visualize nuclei and examined using a stereomicroscope (Nikon, U.S.A.).
# [1] = tested on: HER2/neu-overexpressing human breast cancer BT474 cells; test: cytotoxicity of herceptin delivered by hydrogels (MTT); format: cell-based; details: 120 hours treatment; herceptin concentration
# [2] = tested on: BT474-tumor bearing mouse model; test: in vivo anti-tumor efficacy; set-up: species or system mice; details: 4×10 mg/kg weekly
# Experimental: Female BALB/c nude mice, weighing 18 g to 22 g were injected subcutaneously with 200 microliters of a cell suspension (1:1 with Matrigel) (BD Biosciences, U.S.A.) containing 5×10^6 BT474 cells. Three weeks after inoculation (when the tumor volume was 100 mm^3 to 120 mm^3), the tumor-bearing mice were randomly divided into several groups (7 to 10 mice per group). […] All mice were injected only once on the first day of treatment (Day 0). […] The tumor size was measured by calipers in two orthogonal diameters and the volume was calculated as L×W2/2, where L and W are the major and minor diameters respectively. At the end of the treatment, a two-tailed Student's t test was used to statistically evaluate the difference in tumor volume and P≦0.05 was considered to indicate a statistically significant difference. In addition, the toxicities of the different formulations were evaluated by monitoring the change in mouse body weight over the course of treatment.
substance,measurement,setting,value
"herceptin: recombinant humanized mAb that selectively binds HER2 (Mw 145.5 kDa, Roche); solutions in HPLC grade water",TUNEL staining of tumor cells,BT474-tumor bearing mice,mostly apoptotic
same,IC50,[1],< 5 µg/mL
same,tumor shrinkage by the end of the treatment,"[2]; intravenous, P=0.001",32%
same,tumor size over course of treatment,"[2]; subcutaneous, ~4 cm from tumor",remained similar in size

# From patent US9637592B2, “Vitamin functionalized gel-forming block copolymers for biomedical applications” (International Business Machines Corporation, priority 2013, dated 2017)
